Experiments:
[1] = test system: NCI-H187 human SCLC cells; experiment: Orthotopic human small cell lung cancer (NCI-H187) model in nude mice
[2] = test system: PC14-PE6 human lung adenocarcinoma (NSCLC) cells; experiment: Orthotopic human lung adenocarcinoma (PC14-PE6) model in nude mice; settings: 20 mg/kg/day oral for 5 days
[3] = test system: A549 lung cancer subcutaneous tumor xenografts (HIF1-α negative); experiment: A549 lung cancer subcutaneous tumor xenograft growth; settings: 80 or 100 mg/kg daily i.p. for five days; FIG. 3
[4] = test system: A549 lung cancer subcutaneous tumor xenografts (HIF1-α negative); settings: as reported in U.S. Publication No. 20060104902; cited from earlier work
[5] = test system: HT-29 colon cancer subcutaneous tumor xenografts; experiment: HT-29 colon cancer subcutaneous tumor xenograft growth; settings: 80 or 100 mg/kg daily i.p. for five days; FIG. 3

For NC(Cc1ccc([N+]([O-])(CCCl)CCCl)cc1)C(=O)O (stereo not shown), the “preventing lung tumor growth and mediastinal metastasis” value ([1]; high dose 20 mg/kg/day oral for 5 days) was “highly effective”, the “reduction of median primary lung tumor volume as compared to control” value ([1]; high dose 20 mg/kg/day oral for 5 days, p=0.0001) was 99% and the “reduction of median left lung weight as compared to control” value ([1]; high dose 20 mg/kg/day oral for 5 days, p=0.0003) was 89%. The “preventing lung tumor growth and mediastinal metastasis” value ([1]; low dose 10 mg/kg/day oral for 5 days) was “highly effective”, the mediastinal metastasis [2] was “markedly reduced mediastinal metastasis” and the “reduction of median primary lung tumor volume as compared to control” value ([2]; p=0.005) was 87%. For the same compound, the “reduction of median left lung weight as compared to control” value ([2]; p=0.006) was 80%, the “growth of A549 lung cancer subcutaneous tumor xenografts” value [3] was “but not A549 lung cancer” and the “effect against HIF1-α negative A549 lung cancer xenografts” value [4] was “ineffective”. For the same compound, the “growth of HT-29 colon cancer subcutaneous tumor xenografts” value [5] was “inhibited the growth”.
